Read-outs that look alike come from different tables or passages of the source.
Test: In-vivo absorbency (plasma concentrations & pharmacokinetic parameters)
Conditions: rat, iv, 20 mg/kg, SD male rat, two compartment model
Source text: The blood samples from the femoral vein of the rats were taken every hour after administration, and analyzed by bio-assay(agar well method).
Tested animal: SD male Rat (220~340 g)

**Q.** With `CC(C)(O/N=C(\C(=O)N[C@@H]1C(=O)N2C(C(=O)[O-])=C(C[n+]3ccccc3)CS[C@H]12)c1csc(N)n1)C(=O)O` [Ceftazidime, reference compound] as the compound, how does the half-life (read-out: T1/2 (α)) read?
**A.** 5 min

**Q.** What about the half-life (read-out: T1/2 (β)) of the same compound?
**A.** 20 min

Reference: patent US5202315A, “Cephalosporin compounds” (Lucky, Ltd., priority 1989, dated 1993)
